Legend:
Type in all cases: binding
BRD4-BD2 [1] = target: T1, BRD4-BD2 (Homo sapiens (Human), UniProt O60885); assay: BRD4 AlphaScreen Assay (Example A2), BRD4-BD2; conditions: read-out: BRD4 BD-2 enzyme IC50
Method: (§1) BRD4-BD1 and BRD4-BD2 assays were conducted in white 384-well polystyrene plate in a final volume of 40 μL for BD1 and 60 μL for BD2. Inhibitors were first serially diluted in DMSO and added to the plate wells before the addition of other reaction components. […] The assays were carried out at room temperature in the assay buffer (50 mM Tris-HCl, pH 7.5, 0.01% Tween-20, 0.01% BSA, 5 mM DTT), containing 50 nM Biotin-labeled tetra-acetylated histone H4 peptide (H4Ac4) and BRD4-BD1 or BRD4-BD2 protein at concentration less than 1 nM. […] After plate sealing, the plate was incubated in the dark at room temperature for 75 min. before reading on a PHERAstar FS plate reader (BMG Labtech). IC50 determination was performed by fitting the curve of percent control activity versus the log of the inhibitor concentration using the GraphPad Prism 5.0 software.

BRD4-BD1 [2] = target: T2, BRD4-BD1 (Homo sapiens (Human), UniProt O60885); assay: BRD4 AlphaScreen Assay (Example A2), BRD4-BD1; conditions: read-out: BRD4 BD-1 enzyme IC50
Method: as §1

BRD4-BD1 [3] = target: T2, BRD4-BD1; assay: BRD4 AlphaScreen Assay (Example A1), BRD4-BD1; conditions: Assay A1, 3.8 nM BRD4-BD1, 50 nM H4Ac4 peptide; read-out: BRD4 BD-1 enzyme IC50
Method: (§2) BRD4-BD1 and BRD4-BD2 assays were conducted in white 384-well polystyrene plate in a final volume of 20 μL for BD1 and 40 μL for BD2. Inhibitors were first serially diluted in DMSO and added to the plate wells before the addition of other reaction components. […] After plate sealing, the plate was incubated in the dark at room temperature for 75 min. before reading on a PHERAstar FS plate reader (BMG Labtech). IC50 determination was performed by fitting the curve of percent control activity versus the log of the inhibitor concentration using the GraphPad Prism 5.0 software.

BRD4-BD2 [4] = target: T1, BRD4-BD2; assay: BRD4 AlphaScreen Assay (Example A1), BRD4-BD2; conditions: Assay A1, 20 nM BRD4-BD2, 50 nM H4Ac4 peptide; read-out: BRD4 BD-2 enzyme IC50
Method: as §2

[5] = Assay A2, AlphaScreen, BRD4-BD2
[6] = Assay A2, AlphaScreen, BRD4-BD1

Row | Compound | IC50 (BRD4-BD2 [1]; [5]) | IC50 (BRD4-BD1 [2]; [6]) | further results
1 | Cc1noc(C)c1-c1ccc2[nH]c(=O)n3c2c1OC(C(=O)N(C)C)C3c1ccccc1 (single isomer, unassigned) [Example 47B, 7-(3,5-Dimethylisoxazol-4-yl)-N,N-dimethyl-2-oxo-4-phenyl-1,2,4,5-tetrahydroimidazo [1,5,4-de][1,4]benzoxazine-5-carboxamide] | < 100 nM | 100 to 1000 nM | –
2 | Cc1noc(C)c1-c1ccc2nc(N3CC[C@@H](O)C3)n3c2c1OCC3c1cccnc1 (single isomer, unassigned) [Example 159D] | < 100 nM | < 100 nM | –
3 | Cc1noc(C)c1-c1ccc2nc(C3=CCCNC3)n3c2c1OC[C@@H]3c1ccccn1 [Example 107, (4S)-7-(3,5-dimethylisoxazol-4-yl)-4-pyridin-2-yl-2-(1,2,5,6-tetrahydropyridin-3-yl)-4,5-dihydroimidazo[1,5,4-de][1,4]benzoxazine] | < 100 nM | < 100 nM | –
4 | CC(=O)NCc1ncccc1C1COc2c(-c3c(C)noc3C)ccc3[nH]c(=O)n1c23 (stereo not shown) [Example 131, N-({3-[7-(3,5-Dimethylisoxazol-4-yl)-2-oxo-1,2,4,5-tetrahydroimidazo[1,5,4-de][1,4]benzoxazin-4-yl]pyridin-2-yl}methyl)acetamide] | < 100 nM | < 100 nM | –
5 | Cc1noc(C)c1-c1ccc2nc(N3CC[C@H](O)C3)n3c2c1OC[C@@H]3c1cccnc1 [Example 168B, (3S)-1-[(4S)-7-(3,5-Dimethylisoxazol-4-yl)-4-pyridin-3-yl-4,5-dihydroimidazo[1,5,4-de][1,4]benzoxazin-2-yl]pyrrolidin-3-ol] | – | – | IC50 (BRD4-BD2 [1]): < 100 nM; IC50 (BRD4-BD1 [2]): < 100 nM
6 | CCOC(=O)C1Oc2c(-c3c(C)noc3C)ccc3[nH]c(=O)n(c23)C1c1ccccn1 (stereo not shown) [Example 20, Ethyl 7-(3,5-dimethylisoxazol-4-yl)-2-oxo-4-pyridin-2-yl-1,2,4,5-tetrahydroimidazo[1,5,4-de][1,4]benzoxazine-5-carboxylate] | < 100 nM | 100 to 1000 nM | –
7 | Cc1noc(C)c1-c1ccc2nc(N3CC[C@@H](O)C3)n3c2c1OCC3c1cccnc1 (single isomer, unassigned) [Example 159A] | 100 to 1000 nM | 1000 to 10000 nM | –
8 | Cc1noc(C)c1-c1ccc2nc(C3=CCNCC3)n3c2c1OC[C@@H]3c1ccccn1 [Example 104, (4S)-7-(3,5-dimethylisoxazol-4-yl)-4-pyridin-2-yl-2-(1,2,3,6-tetrahydropyridin-4-yl)-4,5-dihydroimidazo[1,5,4-de][1,4]benzoxazine] | – | – | IC50 (BRD4-BD2 [1]): < 100 nM; IC50 (BRD4-BD1 [2]): < 100 nM
9 | Cc1noc(C)c1-c1ccc2nc(N3CC[C@@H](O)C3)n3c2c1OC[C@@H]3c1cccnc1 [Example 168A, (3R)-1-[(4S)-7-(3,5-Dimethylisoxazol-4-yl)-4-pyridin-3-yl-4,5-dihydroimidazo[1,5,4-de][1,4]benzoxazin-2-yl]pyrrolidin-3-ol] | – | – | IC50 (BRD4-BD2 [1]): < 100 nM; IC50 (BRD4-BD1 [2]): < 100 nM
10 | Cc1noc(C)c1-c1ccc2[nH]c(=O)n3c2c1OC(C(=O)N(C)C)C3c1ccccc1 (single isomer, unassigned) [Example 47A, 7-(3,5-Dimethylisoxazol-4-yl)-N,N-dimethyl-2-oxo-4-phenyl-1,2,4,5-tetrahydroimidazo [1,5,4-de][1,4]benzoxazine-5-carboxamide] | 100 to 1000 nM | 100 to 1000 nM | –
11 | Cc1noc(C)c1-c1ccc2nc(N3CCNCC3)n3c2c1OCC3c1ccccc1 (stereo not shown) [Example 40, 7-(3,5-Dimethylisoxazol-4-yl)-4-phenyl-2-piperazin-1-yl-4,5-dihydroimidazo[1,5,4-de][1,4]benzoxazine] | – | – | IC50 (BRD4-BD1 [3]): 100 to 1000 nM; IC50 (BRD4-BD2 [4]): < 100 nM
12 | CCOC(=O)C1Oc2c(-c3c(C)noc3C)ccc3[nH]c(=O)n(c23)C1c1ccccc1 (stereo not shown) [Example 23, Ethyl 7-(3,5-dimethylisoxazol-4-yl)-2-oxo-4-phenyl-1,2,4,5-tetrahydroimidazo[1,5,4-de][1,4]benzoxazine-5-carboxylate] | – | – | IC50 (BRD4-BD1 [3]): < 100 nM; IC50 (BRD4-BD2 [4]): < 100 nM
13 | Cc1noc(C)c1-c1ccc2[nH]c(=O)n3c2c1OCC3c1cccnc1C(=O)N(C)C (stereo not shown) [Example 129, 3-[7-(3,5-Dimethylisoxazol-4-yl)-2-oxo-1,2,4,5-tetrahydroimidazo[1,5,4-de][1,4]benzoxazin-4-yl]-N,N-dimethylpyridine-2-carboxamide] | < 100 nM | 100 to 1000 nM | –
14 | Cc1noc(C)c1-c1ccc2nc(N3CC[C@@H](O)C3)n3c2c1OCC3c1cccnc1 (single isomer, unassigned) [Example 159B] | < 100 nM | < 100 nM | –
15 | CC(=O)NCC1(c2ccccn2)COc2c(-c3c(C)noc3C)ccc3[nH]c(=O)n1c23 (stereo not shown) [Example 72, N-{[7-(3,5-Dimethylisoxazol-4-yl)-2-oxo-4-pyridin-2-yl-1,2,4,5-tetrahydroimidazo[1,5,4-de][1,4]benzoxazin-4-yl]methyl}acetamide 2,2,2-trifluoroacetate] | – | 100 to 1000 nM | IC50 (BRD4-BD2 [1]): < 100 nM
16 | Cc1noc(C)c1-c1ccc2nc(N3CC[C@@H](O)C3)n3c2c1OCC3c1cccnc1 (mixture of isomers) [Example 159E, (3R)-1-[7-(3,5-Dimethylisoxazol-4-yl)-4-pyridin-3-yl-4,5-dihydroimidazo[1,5,4-de][1,4]benzoxazin-2-yl]pyrrolidin-3-ol] | < 100 nM | < 100 nM | –
17 | Cc1noc(C)c1-c1ccc2nc(N3CC[C@@H](O)C3)n3c2c1OCC3c1cccnc1 (single isomer, unassigned) [Example 159C] | < 100 nM | 100 to 1000 nM | –

From US9624241B2 (Incyte Corporation, priority 2013, dated 2017)
